In patent US20260262641A1 (priority 2023, published 2026):

Tested on: insecticide-resistant population of redlegged earth mite (H. destructor; RLEM)
Details: P < 0.05 level

## Cc1nn(C)c(Oc2ccccc2)c1C=NOCc1ccc(C(=O)OC(C)(C)C)cc1 [Fenpyroximate]
  difference between insecticide-susceptible and resistant populations in response (in words): no significant differences
